The subject of this series is female mice. Kind of series: skin sensitization test based on the LLNA (Local Lymph Node Assay), SI value by BrdU intake. It counts as in vivo. To be noted: test substance 50.0 W/v % in acetone/olive oil 4:1, 25 μL to both auricles once a day for 3 days, SI less than 3 = negative. As for the experimental part: The individuals remaining after the categorization were excluded from the test.
The test substance was weighed in a measuring flask, and the volume of the test substance was adjusted to 1 mL with the medium. The thus-prepared test substance preparation was placed in a light-shielded airtight container (made of glass).
This treatment was performed once a day for three consecutive days.
The surrounding tissue of each auricular lymph node was removed, and the auricular lymph nodes from both the auricles were collectively weighed.
After returning the auricular lymph nodes to room temperature, the auricular lymph nodes were mashed with the gradual addition of physiological saline, and suspended therein. The thus-obtained suspension was filtrated and thereafter dispensed into the wells of a 96-well microplate, with 3 wells being used per individual. The thus-dispensed suspensions were measured for intake of BrdU by the ELISA method. […] A multiplate reader (FLUOSTAR OPTIMA, product of BMG LABTECH Inc.) was used to measure the absorbance of each well (OD: 370 nm to 492 nm, the intake of BrdU), and the average of the absorbance of the 3 wells for each individual was used as the measurement of BrdU for the individual.
Regarding “ethylene oxide-modified bisphenol A diacrylate [a4]”, the “SI values in LLNA test” value is recorded as 1.2.
For “ethyleneoxide-modified pentaerythritol tetraacrylate [a6]” the value was 1.6.
As for “ethyleneoxide-modified trimethylolpropanetrimethacrylate [a3]”, the “SI values in LLNA test” value was 1.0.

The values are drawn from patent publication US9120946B2, “Active energy ray curing type composition, container that accommodates composition, inkjet discharging device having container, and cured matter” (RICOH COMPANY, LTD., priority 2013, dated 2015).
